Source: the Kinase Knowledgebase extract (Sharma et al. 2016)
Converted amounts (≈) assume the structure as drawn.

Target: CDK2 (UniProt P24941)
Assay: Enzyme Assay

For `CC(C)n1cnc2c(NCc3ccc(F)cc3)nc(NCCN)nc21`, the IC50 was 0.17 µg/mL (≈ 0.495 µM).
